Experimental data from patent US20230265432.

Target: Myc-tagged RBBP4

B1: Flag-tagged full-length RNF5 (WT) (protein)
chain: MAAAEEEDGGPEGPNRERGGAGATFECNICLETAREAVVSVCGHLYCWPCLHQWLETRPERQECPVCKAGISREKVVPLYGRGSQKPQDPRLKTPPRPQGQRPAPESRGGFQPFGDTGGFHFSFGVGAFPFGFFTTVFNAHEPFRRGTGVDLGQGHPASSWQDSLFLFLAIFFFFWLLSI
For B1, the “poly-ubiquitination of Myc-RBBP4 with K-only HA-ubiquitin mutants (K29, K11, K27, K6, K33)” value was “Poly-ubiquitination of RBBP4 was enhanced by RNF5 only in the presence of K29 ubiquitin”.
